Protein sequences, listed by entry. Tags and fused reporters are not part of them. Residues count along the entry.
UniProt Q86X55, 1-585 isoform 1: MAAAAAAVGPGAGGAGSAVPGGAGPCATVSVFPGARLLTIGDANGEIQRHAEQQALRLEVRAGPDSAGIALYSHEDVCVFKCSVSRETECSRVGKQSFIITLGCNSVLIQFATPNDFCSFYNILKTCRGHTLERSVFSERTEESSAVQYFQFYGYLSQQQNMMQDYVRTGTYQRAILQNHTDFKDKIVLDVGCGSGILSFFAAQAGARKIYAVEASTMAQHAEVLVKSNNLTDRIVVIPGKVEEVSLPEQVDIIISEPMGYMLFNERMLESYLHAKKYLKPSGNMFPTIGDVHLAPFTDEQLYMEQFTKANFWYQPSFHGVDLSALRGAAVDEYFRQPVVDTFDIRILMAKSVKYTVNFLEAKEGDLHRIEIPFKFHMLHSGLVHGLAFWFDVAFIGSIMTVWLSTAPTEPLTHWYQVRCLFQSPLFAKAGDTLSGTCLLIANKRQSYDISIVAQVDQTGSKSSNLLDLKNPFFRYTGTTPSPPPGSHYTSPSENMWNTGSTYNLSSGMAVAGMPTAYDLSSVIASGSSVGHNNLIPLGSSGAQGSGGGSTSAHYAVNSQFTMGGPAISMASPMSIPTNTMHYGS

In US9630961B2, “Arginine methyltransferase inhibitors and uses thereof” (Epizyme, Inc., priority 2013, dated 2017):

Molecular target: CARM1 (PRMT4) (Homo sapiens, UniProt Q86X55)
Experiment: CARM1 Biochemical Assay (3H-SAM Flashplate, peptide substrate)
Settings: read-out: Biochemical IC50 CARM1; 30 min preincubation, room temperature
Source text: S-adenosylmethionine (SAM), S-adenosylhomocysteine (SAH), bicine, Tween20, dimethylsulfoxide (DMSO), bovine skin gelatin (BSG), sodium butyrate and Tris(2-carboxyethyl)phosphine hydrochloride solution (TCEP) were purchased from Sigma-Aldrich at the highest level of purity possible. ^3H-SAM was purchase from American Radiolabeled Chemicals with a specific activity of 80 Ci/mmol. 384-well streptavidin Flashplates were purchased from PerkinElmer.
Peptide representative of human histone H3 residues 16-30 was synthesized with an N-terminal linker-affinity tag motif and a C-terminal amide cap by 21st Century Biochemicals. The peptide was purified by high-performance liquid chromatography (HPLC) to greater than 95% purity and confirmed by liquid chromatography mass spectrometry (LC-MS). The sequence was Biot-Ahx-PRKQLATKAARKSAP-amide and contained a monomethylated arginine at position 26 (SEQ ID NO.:14).
Human CARM1 (PRMT4) (NM_199141.1) transcript clone was amplified from an HEK 293 cDNA library, incorporating a flanking 5′ sequence encoding a FLAG tag (MDYKDDDDK) (SEQ ID NO.:6) fused directly to Ala 2 of CARM1 and 3′ sequence encoding a hexa His sequence (EGHHHHHH) (SEQ ID NO.:15) fused directly to Ser 608. The gene sequence encoding isoform1 containing a deletion of amino acids 539-561 was amplified subsequently and subcloned into pFastBacMam (Viva Biotech). […]

SMILES | IC50 [nM]
CNCCN(C)Cc1c[nH]nc1-c1cncnc1 | > 10000
CNCCN(C)Cc1c[nH]nc1-c1csc2ccccc12 | 101 to 1000
